Laboratory results reported in patent publication US20080108067A1, “Cloning of the retinoic acid inducible gene-1 promoter and uses thereof” (priority 2004, published 2008).

How the values were obtained:
[1] = system: RIG-PROM-LUC construct mutated in the IRF-1 binding site; assay: mutant IRF-1 RIG-PROM-LUC luciferase reporter activity in response to inducers; type: cell-based, human; conditions: p69, DU-145 and HeLa cells; IFN-β 2000 units/ml, Adnull 100 pfu; FIG. 5A-C
[2] = system: human RIG-1 promoter (RIG-PROM-LUC reporter); assay: RIG-PROM-LUC luciferase reporter activity in response to inducers in transfected human cells; type: cell-based

effect on activity of mutant IRF-1 RIG-PROM-LUC reporter [1]: did not affect
Substance: IFN-β: β-interferon, Type-I interferon used as inducer at 100-2000 units/ml
inducibility of reporter over control ([2]; 70 W human melanoma cells, overall promoter activity much lower, FIG. 4): statistically significant inducibility over control
activation of promoter activity (RIG-PROM-LUC) ([2]; FM516 and HeLa cells, IFN-β induction greater than PolyIC:PolyIC and least with retinoic acid, FIG. 2): robust activation
induction of full length RIG-PROM-LUC reporter activity over control ([2]; p69, DU-145 and HeLa cells, IFN-β 2000 units/ml, Adnull 100 pfu, FIG. 5A-C): 3-7 fold
induction of reporter ([2]; p69 immortalized human prostate epithelial cells, FIG. 4): 3 fold
